## Yeast mating assay 1: variants of the scFv Ab-14

Target peptide (SARS-CoV-2 spike, HR2 region): PDVDLGDISGINAS

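Phage display of a naive human antibody library on the peptide gave the parent. AAYL50 was designed without a model: most single CDR substitutions and a random sample of double and triple ones. In AlphaSeq, yeast of one mating type display the scFv and yeast of the other type display the target. After mating in shaken culture at 30 °C for 16 h, diploids were selected and their barcode pairs sequenced. Each replicate has its own calibration line, from reference interactions of the BCL2 family. There are three technical replicates.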

The variants keep the heavy chain, the linker and the frameworks of Ab-14 (scFv order VH, the linker GGGGSGGGGSGGGGS, VL).
VH: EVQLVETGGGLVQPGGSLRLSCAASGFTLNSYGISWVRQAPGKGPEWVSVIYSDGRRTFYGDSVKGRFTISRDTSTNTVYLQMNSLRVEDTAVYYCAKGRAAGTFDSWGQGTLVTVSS
VL: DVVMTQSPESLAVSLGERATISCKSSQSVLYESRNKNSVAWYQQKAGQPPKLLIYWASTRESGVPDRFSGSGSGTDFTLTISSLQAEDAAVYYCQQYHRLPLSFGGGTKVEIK

Positions count from residue 1 of the parent VL; W56Y puts Y in place of W. All variants listed here change E61 of the VL, counted from its first residue. The Kd shown is the geometric mean over detected replicates; a lower Kd is a better binder. "no signal" means that the variant was in the library but no mating with the target was seen in any replicate; the authors take this as a sign of poor binding, and no number exists. Empty control strains, which show no peptide, gave a signal in 18% of pairings with library AAYL50; the median was 15 µM and 95% of these signals were weaker than 970 nM. No background was subtracted.

With W56Y+E61K+Q96N the result was 270 nM (1 of 3 replicates).
With K36P+V39F+E61W the result was no signal (0 of 3 replicates).
With R34D+A57D+E61N the result was 4.4 nM (3 of 3 replicates).
With E61W+Q95M+P101H the result was no signal (0 of 3 replicates).
With E32C+R60K+E61K the result was no signal (0 of 3 replicates).
With R60K+E61H+Q95P the result was 17 µM (1 of 3 replicates).
With E61C+S62K the result was 11 nM (3 of 3 replicates).
With A40R+A57C+E61H the result was 81 µM (2 of 3 replicates).
With K24G+Q27S+E61K the result was 1.1 µM (2 of 3 replicates).
With Y31S+S58T+E61V the result was 4.7 nM (3 of 3 replicates).
With S26K+E61G+P101K the result was no signal (0 of 3 replicates).
With E61S+Y97S+P101T the result was 240 nM (2 of 3 replicates).
With K36C+E61A+Y97I the result was 3.2 nM (3 of 3 replicates).
With A57K+E61G+S62M the result was no signal (0 of 3 replicates).
With S26E+S58H+E61L the result was 18 nM (3 of 3 replicates).
With E61Y+Y97D+H98W the result was no signal (0 of 3 replicates).
With K24I+E61L the result was 32 nM (3 of 3 replicates).
With Y31S+K36T+E61F the result was 3.3 nM (3 of 3 replicates).
With E32H+T59P+E61W the result was 7.0 µM (2 of 3 replicates).
With Q27D+E61G the result was 760 nM (3 of 3 replicates).
With R34H+N35T+E61F the result was 14 nM (3 of 3 replicates).
With E61D+Q96I+P101N the result was 8.8 nM (3 of 3 replicates).
With K36C+S58V+E61Q the result was no signal (0 of 3 replicates).
With S28N+N37H+E61Q the result was 47 nM (3 of 3 replicates).
With K36F+S58M+E61D the result was 1.8 µM (3 of 3 replicates).
With W56E+E61P+R99N the result was 2.1 nM (3 of 3 replicates).
With V39D+E61K the result was 6.9 µM (2 of 3 replicates).
With E32K+T59E+E61M the result was 16 nM (3 of 3 replicates).
With S26M+V29G+E61R the result was 220 nM (3 of 3 replicates).
With E61N+R99S+S103K the result was 10 µM (2 of 3 replicates).
With S25M+E61G+P101L the result was 23 nM (3 of 3 replicates).
With E61L+P101R the result was 120 µM (2 of 3 replicates).
With N37H+E61T+Q95H the result was 42 µM (2 of 3 replicates).
With S25I+R34Q+E61S the result was 780 pM (3 of 3 replicates).
With E32S+E61R+Q95S the result was no signal (0 of 3 replicates).
With E61G+Q95D the result was 34 nM (3 of 3 replicates).
With W56Y+E61N+H98W the result was 20 nM (3 of 3 replicates).
With S28N+E61G+S62P the result was 32 nM (3 of 3 replicates).
With E32N+S58D+E61S the result was 18 nM (3 of 3 replicates).
With N35W+W56L+E61F the result was 150 nM (3 of 3 replicates).
With N37F+E61D+L100R the result was no signal (0 of 3 replicates).
With K24F+A40N+E61P the result was 1.3 µM (1 of 3 replicates).
With E32C+R60L+E61R the result was 2.2 µM (1 of 3 replicates).
With E61A+L100K the result was no signal (0 of 3 replicates).
With S33E+E61T+S62D the result was 310 µM (1 of 3 replicates).
With N37G+E61N+L102M the result was 760 nM (2 of 3 replicates).
With N35Q+E61S+Q96D the result was 29 nM (3 of 3 replicates).
With S26V+T59Q+E61A the result was no signal (0 of 3 replicates).
With S26D+L30E+E61P the result was 13 nM (3 of 3 replicates).

Excerpt, the final 4 entries:

changes	Kd	detected
N37G+E61N+L102M	760 nM	2/3
N35Q+E61S+Q96D	29 nM	3/3
S26V+T59Q+E61A	no signal	0/3
S26D+L30E+E61P	13 nM	3/3

The measurements come from Engelhart et al. 2022 (doi:10.1038/s41597-022-01779-4) through the FLAb antibody collection.